Entries after “also recorded” stand apart in the source; their conditions may differ.
System: myelinated axons in neuronal cell cultures differentiated from ES-D3 cells
Assay: Demyelination of myelinated neuronal cell cultures, assessed by transmission electron microscopy
Type: cell-based, mouse
Settings: 10 μg/ml, 10 minute exposure
From the text: Monitoring of metabolic activity (CellTiter 96® AQueous One; Promega) is used to identify concentrations that caused a minimum amount of damage to the oligodendrocytes and neurons. In this assay a tetrazolium compound (MTS) and an electron coupling reagent (phenazine ethosulfate) are used for calorimetric detection of metabolic activity. MTS is bioreduced, presumably by NADPH or NADH, into a colored formazan product that is soluble in tissue culture medium and can be detected spectrophotometrically. Absorbance at about […] is proportional to metabolic activity and is commonly used to monitor the number of living cells in culture.

`Oc1c(Cl)cc(Cl)c(Cl)c1Cc1c(O)c(Cl)cc(Cl)c1Cl` [hexachlorophene] was tested. Which “demyelination (transmission electron microscopy)” value did it give?
Its value is “significant demyelination; also recorded: sufficient for demyelination”.

Source: patent US20100069254A1, “Cell Culture Model for Demyelination/Remyelination” (priority 2008, published 2010)
